Ki data for 1 compound are collected here from patent publication US8440639B2, “Combination compositions for reducing intraocular pressure” (Inotek Pharmaceuticals Corporation, priority 2010, dated 2013).

Chains of the proteins cited; added tags and fusions are not shown.
UniProt P30542, whole entry: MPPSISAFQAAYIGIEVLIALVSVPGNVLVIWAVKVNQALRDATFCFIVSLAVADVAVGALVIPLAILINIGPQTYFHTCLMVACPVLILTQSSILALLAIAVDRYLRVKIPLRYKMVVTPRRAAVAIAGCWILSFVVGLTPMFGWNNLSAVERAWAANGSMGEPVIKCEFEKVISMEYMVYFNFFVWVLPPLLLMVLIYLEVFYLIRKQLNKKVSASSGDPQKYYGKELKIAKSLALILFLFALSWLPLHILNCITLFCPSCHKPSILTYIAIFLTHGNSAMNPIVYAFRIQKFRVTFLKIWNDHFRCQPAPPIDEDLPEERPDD

In this assay the target is A1 receptor (Homo sapiens, UniProt P30542). The experiment in a line: Adenosine A1 receptor affinity (Ki potency). Format: binding. The text has this:
As used herein, the term “A1 agonist” refers to an A1 agonist that has an affinity to the A1 receptor while simultaneously having a lower affinity for the A2 and A3 adenosine receptors.

The structures appear in SMILES notation.

Turning to `O=[N+]([O-])OC[C@H]1O[C@@H](n2cnc3c(NC4CCCC4)ncnc32)[C@H](O)[C@@H]1O` [Compound A, ((2R,3S,4R,5R)-5-(6-(cyclopentylamino)-9H-purin-9-yl)-3,4-dihydroxytetrahydrofuran-2-yl)methyl nitrate], the Ki came out at 0.97 nM.

Usually Ki stands for a measure of affinity in units of concentration, obtained from inhibition or displacement. Low values mean tighter binding, high ones weaker binding.
